Test: chemical stability in solution (D2O, NMR)
Format: physicochemical

Row | Substance | chemical stability in solution
1 | 3-(Phosphonooxymethoxy)-ursodeoxycholic acid tributylamine salt [compound 16] | chemical instability
2 | 7-(Phosphonooxymethoxy)-ursodeoxycholic acid tributylamine salt [compound 13a] | chemical instability

— patent US9580459B2, “Water-soluble ursodeoxycholic acid prodrugs” (Metselex, Inc., priority 2013, dated 2017)
